Laboratory results from article PMC12687449, “Membrane disruption attenuates agonist potency in prostanoid receptors” (Biochemical Journal, 2025).

By UniProt entry, the sequences of proteins in these tests, tags left out. Chains listed by the source or under a name are the forms on record and can include a tag or linker.
UniProt P43116, with tags, fused parts or gaps DEL238-250: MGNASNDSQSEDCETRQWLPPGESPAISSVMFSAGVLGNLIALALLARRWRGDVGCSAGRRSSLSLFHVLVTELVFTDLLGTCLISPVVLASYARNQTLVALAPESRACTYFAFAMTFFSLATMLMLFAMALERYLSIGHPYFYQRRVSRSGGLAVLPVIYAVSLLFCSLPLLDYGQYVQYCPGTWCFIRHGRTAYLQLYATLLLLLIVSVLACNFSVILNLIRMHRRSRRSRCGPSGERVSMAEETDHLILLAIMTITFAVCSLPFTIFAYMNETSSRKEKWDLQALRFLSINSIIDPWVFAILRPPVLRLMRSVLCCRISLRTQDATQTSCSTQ

Biological target: T1, EP2 receptor conformation sensor (Homo sapiens, UniProt P43116, DEL238-250)
T1 construct: mT2 insertion and truncation after Q349; expressed in transfected cells
Assay: FRET-based EP2 receptor conformation sensor, single-cell measurements in HEK293 cells
Experimental: The cells were washed once with external buffer and subsequently incubated 2 minutes for single-cell FRET measurements or 10 minutes for BRET measurements in 0.05% saponin (AppliChem, Darmstadt, Germany) dissolved in internal buffer. Afterward, the cells were washed five times for single-cell FRET measurements or three times for BRET measurements with internal buffer.
The coverslips loaded with stably transfected HEK293 cells containing either the FFA3 receptor, α2A-AR CAM, or ETB receptor conformation sensors were clamped in an Attofluor^TM cell chamber and were washed once with external buffer. Afterward, they were side by side either permeabilized or directly measured at room temperature by the use of an inverted microscope (Elipse Ti2, Nikon, Düsseldorf, Germany), equipped with a 100× oil immersion objective (Plan Apo λ 100 x/1.45 oil ∞/0.17 WD 0.13, Nikon, Düsseldorf, Germany) and dual excitation and dual emission imaging capabilities. […] The fluorescence emission of mT2 and the respective YFP variant was simultaneously collected by a second beamsplitter (488, Chroma, Bellows Falls, Vermont, U.S.A.) and two emission filters (mT2: 474/27, Chroma; YFP: 544/23, Chroma). […] For all single-cell FRET experiments, cells were prospectively selected based on a continuous plasma-membrane fluorescence rim and appropriate fluorescence distribution to ensure a PM-dominant receptor signal. […]

EC50: 209 nM | response to the test concentration (about 10 times EC50) normalized to saturating concentration (intact cells, 3000 nM PGE2, reference 20 µM PGE2): full response
SMILES: CCCCC[C@H](O)/C=C/[C@H]1[C@H](O)CC(=O)[C@@H]1C/C=C\CCCC(=O)O [PGE2, (Z)-7-[(1R,2R,3R)-3-hydroxy-2-[(E,3S)-3-hydroxyoct-1-enyl]-5-oxocyclopentyl]hept-5-enoic acid]
